Laboratory results as given in patent US20240102094A1 (Amgen, published 2024).

Amino acid sequences for entries named in this document (tags omitted). Chains listed by the source or under a name are the forms on record and can include a tag or linker.
UniProt Q9NP99, other isoform, or with tags, fused parts or gaps limits assumed: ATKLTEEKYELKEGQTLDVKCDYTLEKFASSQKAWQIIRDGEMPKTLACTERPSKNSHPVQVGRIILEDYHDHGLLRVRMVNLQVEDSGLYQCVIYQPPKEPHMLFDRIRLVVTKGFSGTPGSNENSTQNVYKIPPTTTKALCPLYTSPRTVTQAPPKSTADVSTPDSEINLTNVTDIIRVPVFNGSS

Biological target: T1, recombinant hTREM1:GSS:Flag:6xHis (human, UniProt Q9NP99 21-205, minimally biotinylated (0.3-0.4 biotin/mol) when immobilised on streptavidin sensors)
T1 construct: also called hTREM1-His; not shown: Flag tag
Assay: Octet (biolayer interferometry), binding signal of the His-tagged TREM protein to the antibody
Experimental: The purified hT2AB was diluted to 5 pg/ml in assay buffer (10 mM Tris, 0.13% Triton X-100, 150 mM NaCl, 1 mM CaCl2), 0.1 mg/ml BSA, pH 7.6) and captured on anti-hFc kinetic sensors (18-5090, ForteBio). Recombinant hTREM1:GSS: Flag:6×His and recombinant hTREM2:GSS:Flag:6×His were minimally biotinylated (0.3-0.4 biotin/mol) and immobilized at 70-80 nM onto high precision Streptavidin fiber optic biosensors (SAX, #18-5119) over 2000 seconds to a final loading level of ˜2 nm. Each loaded TREM2 protein was then incubated with a dilution series of hT2AB Fab protein (30, 10, 3.3 nM) for 300 seconds and then 500 seconds in buffer alone (dissociation). […] An anti-hTREM1 antibody and an isotype-matched hIgG2 control antibody were used as controls. To test the binding capacity to the hTREM2R47H mutation, bone marrow-derived macrophages (BMMs) from TREM2^CV, TREM2^R47H and Trem2^{-/-} mice were harvested on day 5 and incubated in FACS buffer (10% FCS in PBS) with hT2AB or control hIgG1 for 30 min, followed by staining with anti-hIgG Fc-PE (9040-09, SouthernBiotech). Dead cells were excluded by DAPI staining.

B1: hT2AB (fully human anti-human TREM2 agonistic monoclonal antibody, effectorless hIgG1) (antibody, V domains shown)
VH: EVQLVQSGAEVKKPGESLKISCKGSGYSFTSYWIGWVRQMPGKGLEWMGIIYPGDADARYSPSFQGQVTISADKSISTAYLQWSSLKASDTAMYFCARRRQGIFGDALDFWGQGTLVTVSS
VL: EIVMTQSPATLSVSPGERATLSCRASQSVSSNLAWFQQKPGQAPRLLIYGASTRATGIPARFSGSGSGTEFTLTISSLQPEDFAVYYCLQDNNFPPTFGQGTKVDIKR
notes: also called hT2AB IgG1; anti-human TREM2 mAb hT2AB
  binding result: no binding
